Our source for the outcome values is PubChem BioAssay (EPA / NIEHS).

This is a selection; strong and weak results do not stand in their true shares. The source made the active and inactive calls. The calls were made as follows: active = hit-call score of the fitted dose curve at least 0.9, where 1 is the maximum; inactive = score below 0.9.

The nature of the experiment: ATG_Ets_CIS: Attagene CIS-FACTORIAL HepG2 Assay for human Erythroblast Transformation Specific (ETS) (AID 2282941). To be noted: HepG2 ETS cis-reporter transcription, actives raise or lower the signal. On the procedure:
ATG_CIS is a cell-based, multiplexed-readout assay that uses HepG2, a human liver cell line, with measurements taken at 24 hours after chemical dosing in a 24-well plate.ATG_Ets_CIS is one of 52 assay component(s) measured or calculated from the ATG_CIS assay. It is designed to make measurements of mRNA induction, a form of inducible reporter, as detected with fluorescence intensity signals by Reverse transcription polymerase chain reaction (RT-PCR) and Capillary electrophoresis technology.Data from the assay component ATG_Ets_CIS was analyzed into 1 assay endpoint. This assay endpoint, ATG_Ets_CIS, was analyzed with bidirectional fitting relative to DMSO as the negative control and baseline of activity. Using a type of inducible reporter, measures of mRNA for gain or loss-of-signal activity can be used to understand the reporter gene at the transcription factor-level as they relate to the gene ETS1. Furthermore, this assay endpoint can be referred to as a primary readout, because this assay has produced multiple assay endpoints where this one serves a reporter gene function. To generalize the intended target to other relatable targets, this assay endpoint is annotated to the dna binding intended target family, where the subfamily is winged helix-turn-helix.
Human liver HepG2 cells are transiently transfected with multiple reporter transcription units (MRTUs) in 6-well plates using FuGene 6 reagent (Roche; 3 ml FuGene/1 mg DNA). The MRTU constructs are regulated by a cis-regulating element (promoter). […] A major difference between the CIS and TRANS system is that in CIS activities of endogenous TFs are measured, whereas the TRANS assay evaluates changes in activities of exogenous, chimeric NR-Gal4 proteins. […] At the end of 24 hour incubation, total RNA was isolated using TriZol reagent (Invitrogen). The isolated RNA is then reverse-transcribed using oligo(dT) primer and Mo-MLV reverse transcriptase (Invitrogen) with DNAse I (Ambion) treatment for 30 min. The one-tenth of the produced cDNA was amplified by PCR using Taq DNA polymerase (Invitrogen) and two reporter sequence-specific primers. The PCR products were fluorescently labeled by primer extension with 6-arboxyfluorescein (6-FAM) 5'-labeled reporter sequence-specific primer (2 min at 95 C, 20 s at 68 C and 10 min at 72 C) and these products were digested with 5U of HpaI (New England Biolabs) for 2h at 37 C. The fragments were purified using Qiaquick PCR columns (Qiagen), analyzed on an ABI 3130xL genetic analyzer (Applied Biosystems) with peak positions identified by using a set of X-rhodamine (ROX)-labeled MapMarker1000 molecular weight standards (BioVentures). The raw capillary electrophoresis data was processed using Attagraph software (Attagene).
`COP(C)(=O)OC`: the molecule was called inactive.
With `Cc1cccc([N+](=O)[O-])c1[N+](=O)[O-]`, the molecule was called inactive.
For `O=[N+]([O-])c1cccc([N+](=O)[O-])c1`, the call was inactive.
As for `N#CBr`, the molecule was called inactive.
As to `CC(C)N(CCO)C(C)C`, the call was inactive.
Regarding `Cc1ccc([N+](=O)[O-])cc1[N+](=O)[O-]`, the call was inactive.
Consider `Cc1ccc([N+](=O)[O-])c([N+](=O)[O-])c1`, for which the molecule was called inactive.
`COc1ccc([N+](=O)[O-])cc1[N+](=O)[O-]`: the molecule was called inactive.
On to `CC(C)OP(C)(=O)OC(C)C`, for which the call was inactive.
For the molecule `Cc1c([N+](=O)[O-])cccc1[N+](=O)[O-]`, the call was inactive.
As for `CN(C)CCCl`, the call was inactive.
Regarding `O=[N+]([O-])OCC(CO[N+](=O)[O-])(CO[N+](=O)[O-])CO[N+](=O)[O-]`, the call was inactive.
